Assay results taken from patent US12042503B2, “Compositions and methods for treating coronavirus infections” (priority 2020, dated 2024).

Amino acid sequences for entries named in this document (tags omitted). A change or cut given only in a name is not applied to a line headed by its entry.
UniProt P43116: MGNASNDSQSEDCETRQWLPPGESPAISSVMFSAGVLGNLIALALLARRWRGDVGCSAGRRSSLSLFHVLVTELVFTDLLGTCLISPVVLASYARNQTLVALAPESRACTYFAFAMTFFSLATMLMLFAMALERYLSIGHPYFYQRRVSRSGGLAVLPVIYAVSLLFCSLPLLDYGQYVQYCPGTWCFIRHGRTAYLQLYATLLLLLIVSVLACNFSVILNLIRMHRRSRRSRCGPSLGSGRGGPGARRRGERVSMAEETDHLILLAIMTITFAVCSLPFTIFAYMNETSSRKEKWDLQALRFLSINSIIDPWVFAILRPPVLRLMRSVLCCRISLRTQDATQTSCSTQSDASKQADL

Target: T1, EP2 receptor (PTGER2) (Homo sapiens, UniProt P43116)
T1 construct: host or cells: PathHunter beta-arrestin cell line
Test: PathHunter beta-arrestin cell-based prostanoid receptor assay, EP2
Conditions: Run 1, GP1681 starting concentration 4 uM; β-Arrestin
Description: DiscoverX cell-based ligand binding assays were performed in the PathHunter beta-arrestin (EP1, EP2, EP3, EP4, FP, IP, and TP receptors) or cAMP Hunter™ (DP receptor) cell lines.
Receptor binding studies were performed in either the PathHunter® b-Arrestin (EP1, EP2, EP3, EP4, FP, IP, and TP receptors) or cAMP Hunter™ (DP receptor) cell lines. A 10 mM working stock of GP1681 was created in 1×PBS, pH 7.4. All assays were carried out in duplicate with 10 individual concentrations of GP1681. A three-fold dilution series of GP1681 was established for the initial or pilot experiment with a starting concentration of 4 uM (starting concentration was chosen based on previous Gemmus Pharma preclinical experimental results).
GP1681 was incubated with cells lines at either 37° C. or room temperature, for 90-180 minutes (temperatures and incubation times are all dependent on established optimized procedures for each receptor cell line) after which cell wells were processed and signal production detected. […] Receptor binding activity was analyzed using CBIS data analysis suite (ChemInnovation, CA). The percentage of activity was calculated using the following formula: % Activity=100%×(mean RLU of test sample−mean RLU of vehicle control)/(mean MAX control ligand−mean RLU of vehicle control). Dose curves were performed and EC50 values determined.

## CCCCC[C@H](O)/C=C/[C@H]1[C@H](O)CC(=O)[C@@H]1C/C=C\CCCC(=O)O [PGE2, Prostaglandin E2, reference compound]
  EC50: 1240 nM
